Structures are written as SMILES. This is a selection; strong and weak results do not stand in their true shares. Active and inactive are the calls of the source. No stated cut-off is given here; in the data, active means activation above about 40%; inactive means the rest.

Amino acid sequences for entries named in this document (tags omitted).
UniProt P16066, whole entry: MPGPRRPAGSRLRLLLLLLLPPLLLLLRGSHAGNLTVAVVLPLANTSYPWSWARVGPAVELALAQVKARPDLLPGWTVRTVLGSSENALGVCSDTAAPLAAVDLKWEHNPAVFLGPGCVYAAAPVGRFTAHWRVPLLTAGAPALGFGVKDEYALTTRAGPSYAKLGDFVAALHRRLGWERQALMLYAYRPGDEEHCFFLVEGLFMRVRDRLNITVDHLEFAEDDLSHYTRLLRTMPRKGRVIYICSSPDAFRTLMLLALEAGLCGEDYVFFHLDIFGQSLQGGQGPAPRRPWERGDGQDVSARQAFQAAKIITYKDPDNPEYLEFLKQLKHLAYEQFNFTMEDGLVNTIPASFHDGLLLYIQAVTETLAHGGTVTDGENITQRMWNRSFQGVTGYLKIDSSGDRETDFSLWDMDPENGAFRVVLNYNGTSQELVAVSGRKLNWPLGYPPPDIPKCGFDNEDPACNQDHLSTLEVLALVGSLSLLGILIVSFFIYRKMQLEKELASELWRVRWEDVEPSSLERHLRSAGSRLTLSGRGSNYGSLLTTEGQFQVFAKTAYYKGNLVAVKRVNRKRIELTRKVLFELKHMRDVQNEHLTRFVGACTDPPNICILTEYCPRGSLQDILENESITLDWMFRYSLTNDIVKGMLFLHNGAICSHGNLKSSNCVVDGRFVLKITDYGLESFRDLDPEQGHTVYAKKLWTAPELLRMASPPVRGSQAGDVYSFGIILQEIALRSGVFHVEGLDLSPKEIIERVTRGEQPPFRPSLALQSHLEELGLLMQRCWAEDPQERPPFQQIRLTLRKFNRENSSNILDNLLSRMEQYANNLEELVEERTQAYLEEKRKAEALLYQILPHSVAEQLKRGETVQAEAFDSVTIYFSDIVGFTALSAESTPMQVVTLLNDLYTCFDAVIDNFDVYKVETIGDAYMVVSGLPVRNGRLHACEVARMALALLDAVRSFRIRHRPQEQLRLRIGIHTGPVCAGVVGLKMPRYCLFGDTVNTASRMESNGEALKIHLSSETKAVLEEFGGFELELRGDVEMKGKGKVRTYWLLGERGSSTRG

The experiment deals with Atrial natriuretic peptide receptor 1 (Homo sapiens) (UniProt P16066). Put plainly: GC-A stimulated cGMP production enhancers – HEK293 GC-A cells, cGMP TR-FRET, EC30 ANP, primary screen (AID 1671463). The conditions noted are these: at 10 µM, active compounds read high, 0% at EC30 ANP, 100% saturating ANP. In general terms: TR-FRET usually uses a lanthanide donor and a delayed reading to cut background.
Regarding `CCC(=O)N(c1ccccc1)C1(COC)CCN(CCc2cccs2)CC1`, the activation is inactive: -2.55%.

As to `CCC(=O)N(c1ccccc1)C1(COC)CCN(CCn2nnn(CC)c2=O)CC1`, the activation is inactive: 5.47%.

Values taken from PubChem BioAssay AID1671463 (Sanford-Burnham Center for Chemical Genomics, 2021).
